Here are results for one substance from patent US9012152B2, “Anti-bacterial peptides and methods of treating diseases using same” (Yissum Research Development Company of the Hebrew …, priority 2007, dated 2015).

This test has as its system E. Coli MC41relA^+. Kind of test: EDF activity of modified derivatives (size and external Asn residues). It is filed as cell-based. Particulars: various concentrations added to diluted cultures; incubated with rifampicin. The text has this:
FIGS. 14A-B are graphs illustrating that NNWNN (SEQ ID NO: 1) is the optimal molecule for EDF activity. FIG. 14A illustrates that each of the five amino acids is important for EDF activity. The five peptides analyzed include NNWNN (SEQ ID NO: 1); GNWNN (SEQ ID NO: 2); NGWNN (SEQ ID NO: 3); NNGNN (SEQ ID NO: 4); NNWGN (SEQ ID NO: 5); and NNWNG (SEQ ID NO: 6). The importance of size and external Asn residues for EDF activity is illustrated in FIG. 14B. Chemically synthesized EDF (SEQ ID NO: 1) or its modified derivatives were added at various concentrations to diluted cultures of E. Coli MC41relA^+. No EDF was added to a control culture. The modified derivatives that were added include NWN (SEQ ID NO: 7); NNNWNNN (SEQ ID NO: 8); QNWNN (SEQ ID NO: 9); NNWNQ (SEQ ID NO: 10); and GNWNG (SEQ ID NO: 11). Samples were incubated with rifampicin as described in Example 1.
E. coli mazEF-mediated cell death in the presence of synthesized wild type (WT) and mutated EDF. E. coli MC4100relA^+t(WT) and MC4100relA^+ΔmazEF (ΔmazEF) were grown for 12 hours in M9 medium with shaking (160 rpm). Then, cells were diluted 1:100 in M9 medium and were grown with shaking (160 rpm) at 37° C. to a mid-logarithmic phase (OD600=0.6). […] Cell killing was calculated by comparing the number of the colony-forming ability of cells treated by stressful conditions to those of the cells that were not exposed to the treatment.

As for “NWN: tripeptide derivative of EDF (Chemically synthesized modified EDF derivative)”, the EDF activity entry is on record as “does not have EDF activity”.
